Experimental data as given in patent US20110183363A1 (Genentech, published 2011).

Assays:
[1] = molecular target: T1, E25-AAA mutant, full length; test: semi-homogeneous ELISA (FIG. 10), streptavidin plate Pierce 15125
T1 construct: E25 with three substitutions in light chain CDR1; also called mutant E25; biotin-labeled E25-AAA Mutant

[2] = molecular target: T1, E25-AAA mutant, full length; test: semi-homogeneous ELISA (FIG. 10): positive control in human serum pool preincubated with 1 µg/mL biotin-E25-AAA, streptavidin plate (Pierce 15125), DIG-rhuFcεR1-IgG, HRP-anti-DIG
[3] = molecular target: T1, E25-AAA mutant, full length; test: semi-homogeneous ELISA (FIG. 10), streptavidin plate Pierce 15500

B1: chimeric E25-specific IgE positive control antibody (antibody)
chain 1: QVQLQQSGAELMKPGASVKISCKATGYTFSSHWIEWVKQRSGHGLEWIGEILPGSGSINYNEKFKGKATFTADTSSNTAYMQLSSLASEDSAVYYCGREGADYGYDVAMDYWGQGASVTVSSASTQSPSVFPLTRCCKNIPSNATSVTLGCLATGYFPEPVMVTWDTGSLNGTTMTLPATTLTLSGHYATISLLTVSGAWAKQMFTCRVAHTPSSTDWVDNKTFSVCSRDFTPPTVKILQSSCDGGGHFPPTIQLLCLVSGYTPGTINITWLEDGQVMDVDLSTASTTQEGELASTQSELTLSQKHWLSDRTYTCQVTYQGHTFEDSTKKCADSNPRGVSAYLSRPSPFDLFIRKSPTITCLVVDLAPSKGTVNLTWSRASGKPVNHSTRKEEKQRNGTLTVTSTLPVGTRDWIEGETYQCRVTHPHLPRALMRSTTKTSGPRAAPEVYAFATPEWPGSRDKRTLACLIQNFMPEDISVQWLHNEVQLPDARHSTTQPRKTKGSGFFVFSRLEVTRAEWEQKDEFICRAVHEAASPSQTVQRAVSVNPGK
chain 2: QIVITQSPAIMSASPGEKVTITCSATSSVNYMHWFQQKPGTSPKLWIYGTSHLASGVPARFSGSGSGTSYSLTISRMEAEDAATYYCQQRSRYPFTFGSGTKLEIKR
[1]
  Signal/Noise Ratio at 0.1 IU/mL: 2.1 ratio
  Signal/Noise Ratio at 0.3 IU/mL: 4.3 ratio
  Signal/Noise Ratio at 1 IU/mL: 11.2 ratio
  Signal/Noise Ratio at 3 IU/mL: 32.4 ratio
  Signal/Noise Ratio at 10 IU/mL: 80.3 ratio
  Signal/Noise Ratio at 30 IU/mL: 92.6 ratio
[2]
  Signal/Noise Ratio at 100 IU/mL: 92.8 ratio
[3]
  Signal/Noise Ratio at 0.1 IU/mL: 1.5 ratio
  Signal/Noise Ratio at 0.2 IU/mL: 2.2 ratio
  Signal/Noise Ratio at 0.4 IU/mL: 3.3 ratio
  Signal/Noise Ratio at 0.8 IU/mL: 5.7 ratio
  Signal/Noise Ratio at 1.6 IU/mL: 11.4 ratio
  Signal/Noise Ratio at 3.2 IU/mL: 20.3 ratio
  Signal/Noise Ratio at 6.4 IU/mL: 33.7 ratio
